The values below come from patent publication US20060111357A1, “Quinoline compounds for use in mch receptor related disorders” (priority 2003, published 2006).

Protein sequences, listed by entry. Tags and fused reporters are not part of them. Lines headed by an entry give the natural chain unless they say otherwise; changes in a name come on top.
UniProt Q12809: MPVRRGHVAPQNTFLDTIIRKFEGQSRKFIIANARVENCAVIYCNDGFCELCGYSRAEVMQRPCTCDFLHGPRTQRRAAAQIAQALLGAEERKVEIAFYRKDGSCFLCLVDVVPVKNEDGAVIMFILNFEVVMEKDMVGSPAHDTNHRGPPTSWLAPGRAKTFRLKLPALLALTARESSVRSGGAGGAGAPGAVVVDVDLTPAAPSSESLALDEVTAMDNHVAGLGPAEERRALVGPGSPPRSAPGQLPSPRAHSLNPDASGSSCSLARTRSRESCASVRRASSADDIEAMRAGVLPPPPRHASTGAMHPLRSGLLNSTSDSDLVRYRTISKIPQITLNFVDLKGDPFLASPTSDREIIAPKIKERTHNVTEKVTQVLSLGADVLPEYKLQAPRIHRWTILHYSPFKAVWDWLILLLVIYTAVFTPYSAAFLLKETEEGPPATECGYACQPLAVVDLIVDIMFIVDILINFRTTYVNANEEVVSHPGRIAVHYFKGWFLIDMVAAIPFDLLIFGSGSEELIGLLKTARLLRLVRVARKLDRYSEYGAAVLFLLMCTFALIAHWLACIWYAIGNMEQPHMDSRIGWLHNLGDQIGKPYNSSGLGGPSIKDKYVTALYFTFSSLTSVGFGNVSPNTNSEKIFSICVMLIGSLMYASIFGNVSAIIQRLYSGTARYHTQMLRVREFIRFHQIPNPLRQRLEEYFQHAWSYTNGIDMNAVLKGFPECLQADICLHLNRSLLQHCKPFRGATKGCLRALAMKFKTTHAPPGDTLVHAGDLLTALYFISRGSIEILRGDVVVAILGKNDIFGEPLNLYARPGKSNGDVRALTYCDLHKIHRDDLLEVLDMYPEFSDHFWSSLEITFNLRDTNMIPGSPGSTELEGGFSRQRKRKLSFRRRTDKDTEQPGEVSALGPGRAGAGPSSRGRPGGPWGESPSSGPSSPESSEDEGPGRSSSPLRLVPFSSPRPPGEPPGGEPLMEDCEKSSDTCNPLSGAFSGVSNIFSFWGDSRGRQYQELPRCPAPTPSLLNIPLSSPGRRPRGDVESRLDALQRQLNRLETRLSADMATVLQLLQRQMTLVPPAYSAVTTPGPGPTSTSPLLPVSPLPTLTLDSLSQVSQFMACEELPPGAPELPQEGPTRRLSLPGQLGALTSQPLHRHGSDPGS

This test concerns the target HERG channels (Homo sapiens, UniProt Q12809). The experiment in a line: HERG selectivity method, whole-cell patch-clamp recordings.

Turning to `CC(C)COCC(CN(Cc1ccccc1)c1ccccc1)N1CCCC1` (centres unmarked) [Bepridil], the inhibitory constant (Ki) (commonly a measure of affinity in units of concentration, obtained from inhibition or displacement) stood at 0.36 ± 0.26 µM. As to `CNCCCN1c2ccccc2CCc2ccccc21` [Desipramine], affinity was put at a Ki of 35 ± 9.2 µM. Against the preceding compound, the Ki is about 97-fold higher.
